Measurements published in patent publication US7179800B2 (priority 2002, dated 2007).

Chains of the proteins cited; added tags and fusions are not shown.
UniProt P34972, whole entry: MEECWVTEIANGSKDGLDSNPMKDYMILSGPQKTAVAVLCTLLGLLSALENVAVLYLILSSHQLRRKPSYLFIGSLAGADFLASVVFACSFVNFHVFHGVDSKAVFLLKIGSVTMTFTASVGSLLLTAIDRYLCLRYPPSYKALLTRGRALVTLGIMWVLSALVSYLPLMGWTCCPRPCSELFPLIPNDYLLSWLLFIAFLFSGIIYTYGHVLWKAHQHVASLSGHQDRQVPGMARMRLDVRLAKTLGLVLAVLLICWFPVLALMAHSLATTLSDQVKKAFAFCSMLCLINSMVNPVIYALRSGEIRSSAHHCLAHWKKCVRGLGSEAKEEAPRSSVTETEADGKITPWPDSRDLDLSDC
UniProt P20272, whole entry: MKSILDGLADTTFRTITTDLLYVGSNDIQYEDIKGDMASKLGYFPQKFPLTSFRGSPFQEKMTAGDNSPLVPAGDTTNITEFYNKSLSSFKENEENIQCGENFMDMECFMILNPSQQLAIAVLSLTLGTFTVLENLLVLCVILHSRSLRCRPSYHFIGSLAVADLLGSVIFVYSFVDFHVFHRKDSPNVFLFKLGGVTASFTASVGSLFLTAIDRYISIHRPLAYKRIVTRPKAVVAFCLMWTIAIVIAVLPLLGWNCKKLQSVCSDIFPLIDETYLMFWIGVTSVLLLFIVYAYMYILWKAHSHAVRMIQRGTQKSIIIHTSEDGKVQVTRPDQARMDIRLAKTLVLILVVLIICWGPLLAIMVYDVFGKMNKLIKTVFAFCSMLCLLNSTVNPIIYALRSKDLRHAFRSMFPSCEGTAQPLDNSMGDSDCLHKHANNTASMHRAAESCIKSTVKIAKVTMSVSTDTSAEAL

Assays:
Male ICR mice [1] = assay: Tail-flick antinociception (TF, % MPE) in mice; format: in vivo, mouse; conditions: Table 6; @ 30 (mg/kg)
Method: (§1) Male ICR mice (25–32 g), obtained from Harlan (Dublin, Va.), were housed in groups of five. All animals were kept in a temperature-controlled (20–22° C.) environment with a 12-hour light-dark cycle (lights on at 7 a.m.). Separate mice were used for testing each drug dose in the in vivo behavioral procedures. Brain tissue for binding studies was obtained from male Sprague-Dawley rats (150–200 g) purchased from Harlan Laboratories (Dublin, Va.).
(§2) Measurement of spontaneous activity in mice occurred in standard activity chambers interfaced with a Digiscan Animal Activity Monitor (Omnitech Electronics, Inc., Columbus, Ohio). […]
(§3) Prior to testing in the behavioral procedures, mice were acclimated to the experimental setting (ambient temperature 22–24° C.) overnight. Pre-injection control values were determined for rectal temperature and tail-flick latency (in sec). […] Tail-flick latency was measured at 20 min post-injection. […] Antinociception was calculated as percent of maximum possible effect {% MPE=[(test−control latency)/(10-control)]×100}. […] At 30 min post-injection, rectal temperature was measured This value was expressed as the difference between control temperature (before injection) and temperatures following drug administration (° C.). […]

CB2 receptor = CB2 receptor (Homo sapiens, UniProt P34972); assay: CB2 binding procedure: displacement of [3H]CP-55,940 from membranes of transfected CHO cells; conditions: relative to the comparator analog
Male ICR mice [2] = assay: Suppression of spontaneous activity (SA) in mice; format: in vivo, mouse; conditions: Table 6; @ 30 (mg/kg)
Method: as §1, §2, §3

CB1 receptor = CB1 receptor (Rattus norvegicus, UniProt P20272); assay: CB1 binding procedure: displacement of [3H]CP 55,940 from rat whole-brain P2 membranes; conditions: read-out: Ki (nM) CB1; means ± SEM; [3H]CP 55,940, rat brain membranes

With `CCCCCCC(C)(C)c1cc(OC)c(C2(O)CCOCC2)c(OC)c1` the “T.F. % effect at dose” value (Male ICR mice [1]) was 23% @ 30, the “fold increase in CB2 affinity” value (CB2 receptor) was 3 fold and the “S.A % effect at dose” value (Male ICR mice [2]) was 36% @ 30. The Ki (CB1 receptor) was greater than 10000 nM.
